The test system of one series is CYP1A-like EROD activity. The series is described as follows: in vitro. Conditions: both, Christophersen, Bornhoeved, rainbow trout (Oncorhynchus mykiss), s9, pH 7.8, EROD inhibition in RT-S9, IC50 shift (A/C).
On the set-up of series [1]: method as in PubChem. Conditions: (e) empirical; ref PubChem; cited from earlier work.
Series [2] has as its target T1, CYP3A-like BFCOD activity (Oncorhynchus mykiss, UniProt O42563).
T1 sequence (O42563 1-518): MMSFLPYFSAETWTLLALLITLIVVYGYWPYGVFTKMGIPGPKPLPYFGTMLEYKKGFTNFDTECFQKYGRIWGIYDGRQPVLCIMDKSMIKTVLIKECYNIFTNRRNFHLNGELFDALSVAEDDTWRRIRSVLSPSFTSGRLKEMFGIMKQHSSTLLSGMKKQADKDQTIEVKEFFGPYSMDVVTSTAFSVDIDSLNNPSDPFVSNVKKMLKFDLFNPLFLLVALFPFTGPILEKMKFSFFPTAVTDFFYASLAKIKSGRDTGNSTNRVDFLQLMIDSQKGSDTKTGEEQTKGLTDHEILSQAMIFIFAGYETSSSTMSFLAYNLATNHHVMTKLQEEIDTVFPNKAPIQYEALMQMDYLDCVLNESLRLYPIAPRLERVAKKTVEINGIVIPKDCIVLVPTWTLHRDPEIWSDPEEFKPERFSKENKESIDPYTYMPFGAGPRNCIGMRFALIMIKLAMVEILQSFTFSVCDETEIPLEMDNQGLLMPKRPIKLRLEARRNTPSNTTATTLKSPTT
In words: BFCOD inhibition in RT-S9 (IC50 shift assay). To be noted: both, Christophersen, Bornhoeved, rainbow trout (Oncorhynchus mykiss), s9, pH 7.8, BFCOD inhibition in RT-S9, IC50 shift (A/C), IC50 Protocol A / IC50 Protocol C.

Where a name gives a salt, the structure may show the parent alone.

With `CN1CCCC(n2nc(Cc3ccc(Cl)cc3)c3ccccc3c2=O)CC1` (stereo not shown) [Azelastine, azelastine hydrochloride], the IC50 shift at 10 min with CYP1A-like EROD activity was 0.8. Moreover, in series [1], the LogKOW is given as 4.9 (e). Moreover, the IC50 shift at 20 min in series [2] was 0.5.
With `CCN1CCCC1CNC(=O)c1cc(S(N)(=O)=O)ccc1OC` (stereo not shown) [Sulpiride, sulpiride], the LogKOW in series [1] is recorded as 0.57 (e).

The record behind these values is publication PMC11284600, “Many human pharmaceuticals are weak inhibitors of the cytochrome P450 system in rainbow trout (Oncorhynchus mykiss) liver S9 fractions” (Frontiers in Toxicology, 2024).
